ChEMBL document CHEMBL1681676, “The design and synthesis of novel N-hydroxyformamide inhibitors of ADAM-TS4 for the treatment of osteoarthritis” (Bioorg Med Chem Lett, 2011)

Target: T1, A disintegrin and metalloproteinase with thrombospondin motifs 4 (Homo sapiens, UniProt O75173)
T1 sequence (O75173 whole entry): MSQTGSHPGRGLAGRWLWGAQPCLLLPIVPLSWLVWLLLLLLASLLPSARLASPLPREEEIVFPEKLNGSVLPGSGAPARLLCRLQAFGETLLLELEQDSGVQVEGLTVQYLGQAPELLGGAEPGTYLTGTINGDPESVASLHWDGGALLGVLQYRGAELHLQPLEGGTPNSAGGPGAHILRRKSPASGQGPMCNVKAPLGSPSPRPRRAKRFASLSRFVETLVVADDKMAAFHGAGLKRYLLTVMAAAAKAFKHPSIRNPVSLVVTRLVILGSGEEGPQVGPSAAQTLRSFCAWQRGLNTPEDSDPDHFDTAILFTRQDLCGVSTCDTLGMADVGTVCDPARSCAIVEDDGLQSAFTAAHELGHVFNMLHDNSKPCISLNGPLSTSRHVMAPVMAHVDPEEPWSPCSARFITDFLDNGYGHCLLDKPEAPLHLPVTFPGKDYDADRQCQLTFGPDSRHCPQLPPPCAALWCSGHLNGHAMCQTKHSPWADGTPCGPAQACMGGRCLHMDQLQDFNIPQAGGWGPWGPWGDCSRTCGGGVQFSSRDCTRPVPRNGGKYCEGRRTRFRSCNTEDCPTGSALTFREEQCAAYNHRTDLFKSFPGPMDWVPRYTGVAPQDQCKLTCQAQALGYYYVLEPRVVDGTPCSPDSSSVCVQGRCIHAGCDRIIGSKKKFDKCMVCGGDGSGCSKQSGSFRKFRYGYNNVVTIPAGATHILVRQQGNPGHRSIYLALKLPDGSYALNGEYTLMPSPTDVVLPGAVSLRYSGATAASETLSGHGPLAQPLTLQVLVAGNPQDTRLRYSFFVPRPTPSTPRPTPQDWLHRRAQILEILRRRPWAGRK
Assay: Inhibition of ADAMTS-4 assessed as substrate cleavage by measuring increase in fluorescence after 16 hrs

- IC50: 3.5 nM
SMILES: C[C@@H](C[C@@](C)(CS(=O)(=O)N1CCC(OCc2ccc(Cl)cc2Cl)CC1)N(O)C=O)c1ncc(F)cn1
